According to patent publication US10648968B2, “In vitro test system to evaluate xenobiotics as immune-modulators of drug transport and metabolism in human hepatocytes” (XenoTech, LLC, priority 2011, dated 2020):

Tests used:
[1] = system: CYP1A2, CYP2B6 and CYP3A4 mRNA; test: qRT-PCR of CYP mRNA levels in treated human hepatocytes; type: cell-based; conditions: same hepatocytes after treatment, changes corresponding to effects on enzymatic activities
CYP3A4 = conditions: hepatocytes
CYP1A2 = conditions: hepatocytes
CYP2B6 = conditions: hepatocytes

## lipopolysaccharides [LPS]
[1]
  levels of specific mRNAs (CYP1A2, CYP2B6, CYP3A4): expected corresponding changes

## IL-6: interlukin-6 (10 ng/mL), a known suppressor of human CYP3A4 (additional positive control)
CYP3A4
  CYP3A4 activity: anticipated decreases
[1]
  levels of specific mRNAs (CYP1A2, CYP2B6, CYP3A4): expected corresponding changes
CYP1A2
  CYP1A2 activity: anticipated decreases
CYP2B6
  CYP2B6 activity: anticipated decreases
